Source: ChEMBL document CHEMBL1641477, “Shp2 protein tyrosine phosphatase inhibitor activity of estramustine phosphate and its triterpenoid analogs” (Bioorg Med Chem Lett, 2011)

Biological target: T1, Tyrosine-protein phosphatase non-receptor type 1 (Homo sapiens, UniProt P18031)
T1 sequence (P18031 whole entry): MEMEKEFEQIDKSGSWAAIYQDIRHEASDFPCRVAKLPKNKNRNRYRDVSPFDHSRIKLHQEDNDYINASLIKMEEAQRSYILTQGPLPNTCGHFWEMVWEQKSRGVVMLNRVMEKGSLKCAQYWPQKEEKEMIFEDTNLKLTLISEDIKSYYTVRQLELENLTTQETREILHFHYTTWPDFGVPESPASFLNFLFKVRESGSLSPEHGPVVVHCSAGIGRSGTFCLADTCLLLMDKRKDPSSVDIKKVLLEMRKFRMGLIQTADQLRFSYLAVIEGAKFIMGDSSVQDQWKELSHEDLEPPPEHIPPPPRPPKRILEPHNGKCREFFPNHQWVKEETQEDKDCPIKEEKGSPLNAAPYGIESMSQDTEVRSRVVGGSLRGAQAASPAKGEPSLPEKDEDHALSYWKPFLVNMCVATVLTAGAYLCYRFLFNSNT
Experiment: Inhibition of recombinant PTP1B

Molecule `CC1(C)[C@@H](O)CC[C@]2(C)[C@H]3C(=O)C=C4[C@@H]5C[C@@](C)(C(=O)O)CC[C@]5(C)CC[C@@]4(C)[C@]3(C)CC[C@@H]12` [ENOXOLONE] has an IC50 of 45.8 µM.
